Target: TNF-α converting enzyme (TACE) (Homo sapiens, UniProt P78536)
Experiment: TACE inhibition, fluorescent peptidyl substrate
Assay type: biochemical

Chains of the proteins cited; added tags and fusions are not shown. Residues count along the entry.
UniProt P78536, 215-824: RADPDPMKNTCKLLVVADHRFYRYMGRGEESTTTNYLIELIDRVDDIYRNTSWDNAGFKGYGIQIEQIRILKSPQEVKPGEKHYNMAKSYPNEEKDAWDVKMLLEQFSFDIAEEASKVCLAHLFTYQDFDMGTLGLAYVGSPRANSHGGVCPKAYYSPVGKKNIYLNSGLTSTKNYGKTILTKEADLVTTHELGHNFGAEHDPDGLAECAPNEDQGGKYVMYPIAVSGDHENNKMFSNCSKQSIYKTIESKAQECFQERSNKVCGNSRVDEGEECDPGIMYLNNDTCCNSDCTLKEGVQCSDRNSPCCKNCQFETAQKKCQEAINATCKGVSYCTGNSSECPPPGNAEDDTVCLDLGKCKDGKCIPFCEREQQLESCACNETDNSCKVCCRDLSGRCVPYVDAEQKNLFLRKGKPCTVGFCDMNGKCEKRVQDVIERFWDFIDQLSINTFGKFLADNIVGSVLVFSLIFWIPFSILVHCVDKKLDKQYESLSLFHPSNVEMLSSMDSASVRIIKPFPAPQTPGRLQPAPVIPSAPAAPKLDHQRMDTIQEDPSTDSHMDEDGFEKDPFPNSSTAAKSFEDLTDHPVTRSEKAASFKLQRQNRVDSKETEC

CC#CCOc1ccc([S+]([O-])[C@@H](C(=O)NO)C(C)C)cc1 (stereo partly shown) [Example 108, R-2-{[4-(2-butynyloxy)phenyl]sulfinyl}-2-isopropyl-N-hydroxyacetamide]
IC50: 48 nM
